This passage reports membrane potential signal change results from PubChem BioAssay AID488924 (Johns Hopkins Ion Channel Center, 2010).

The list shows a part of the results, in another mix than the full data. Calls of active or inactive are those of the source.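 How the source made its calls: active means membrane potential signal moves up or down beyond 5 SD from buffer-only wells, on both duplicate plates; inactive means the rest.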

The nature of this assay: nonspecific voltage dye response without TRPC6 – cell-based, parental HEK293, counter-screen for TRPC6 modulator project, confirmation (AID 488924). The note with it: parental HEK293, membrane potential dye fluorescence; at 10 µM. Background: A counterscreen serves to expose hits that act by an unwanted route or on another target.
As for `O=C(OC1CN2CCC1CC2)C12CC3CC(CC(C3)C1)C2` (stereo unspecified), the membrane potential signal change was active: 102%.
